Values of other authors in patent publication US20250000903A1, “EXPANSION PROCESSES AND AGENTS FOR TUMOR INFILTRATING LYMPHOCYTES” (Iovance Biotherapeutics, Inc., priority 2021, published 2025).

Details: 1 mg vial, according to the COA; cited from earlier work

rhIL-2 lot 10200121: purified, lyophilized recombinant human interleukin-2 (Cellgenix lot)
specific activity: 25×10^6 IU/mg
